The values below are quoted from earlier work in patent US5739106A, “Appetite regulating compositions” (priority 1995, dated 1998).

This series deals with T1, CCK receptor (Homo sapiens, UniProt P32239).
T1 construct: host or cells: cerebral cortex homogenates
T1 sequence (P32239 1-447): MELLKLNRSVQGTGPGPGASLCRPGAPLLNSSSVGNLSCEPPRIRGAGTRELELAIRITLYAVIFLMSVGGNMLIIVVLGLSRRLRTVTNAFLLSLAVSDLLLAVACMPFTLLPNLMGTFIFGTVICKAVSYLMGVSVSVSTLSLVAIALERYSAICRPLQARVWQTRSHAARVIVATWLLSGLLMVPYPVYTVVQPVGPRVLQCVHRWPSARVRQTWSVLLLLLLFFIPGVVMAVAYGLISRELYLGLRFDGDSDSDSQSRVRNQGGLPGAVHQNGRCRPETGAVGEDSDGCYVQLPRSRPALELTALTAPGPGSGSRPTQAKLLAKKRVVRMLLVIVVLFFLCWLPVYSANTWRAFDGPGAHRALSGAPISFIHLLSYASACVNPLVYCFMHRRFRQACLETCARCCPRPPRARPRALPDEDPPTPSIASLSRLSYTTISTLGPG
The conditions noted are these: homogenates from the cerebral cortex; cited from earlier work.

Regarding CCK-4, the “concentration displacing CCK receptor binding relative to sulfated CCK-8” value is on record as “equimolar, 10-fold or 100-fold greater”.
